# Patent US20030181659A1, “Thrombopoietin receptor modulating peptide” (priority 2000, published 2003)
# Columns and labels:
# [1] = Detection of IgG antibodies against the peptide in rat serum; type: in vivo, rats; details: 80 rat serum samples from Example 8
# Method: (§1) Serum samples from monkeys and rats were analysed to detect IgG presence in cynomolgus monkeys and rats which were tested in Examples 8 and 9. In none of the 32 monkey serum samples and the 80 rat serum samples could antibodies against the Peptide with SEQ ID No. 2 be detected.
# [2] = system: peripheral blood mononuclear cells (PBMC); test: Histamine release in peripheral blood mononuclear cells (ELISA); type: cell-based, human
# Method: The effect of the Peptide SEQ ID No. 2 on histamine release was tested in vitro in peripheral blood mononuclear cells (PBMC).
# PBMC from four different subjects were tested. Leukocyte suspensions were incubated with different concentrations of the peptide with SEQ ID No. 2 in a range from 3 μM to 10 mM. Human anti-IgE antibody and buffer only were used as positive and negative controls, respectively. The amount of histamine released was quantitated with ELISA (IBL, catalogue number RE 59221). The assay sensitivity is 2.4 ng/mL.
# The concentration range from 3 μM to 10 mM was elected to evaluate the histamine release of the peptide at levels obtained upon i.v. injection. Thus, a concentration of 30 mg/kg corresponds immediately after injection to ˜38 μM, assuming a distribution volume of 400 ml per kg of tissue. The peptide is known to be distributed freely in the extracellular fluids. Thus, the highest concentration of the peptide at 10 mM is thus in the order of roughly 100 times higher than the highest concentration in the extracellular fluids.
# [3] = 28-day intravenous toxicity study in monkeys
# [4] = in vivo; details: both, cynomolgus monkey
# [5] = Peptide storage stability by HPLC; type: physicochemical; details: 1 mM solutions in water, saline or saline with 0.1% human albumin; −20° C., 4° C. and room temperature; 1, 3 and 4 weeks
# Method: The HPLC method used was based on UV detection of the sample during elution from a reverse phase column system, C8 MICROSORB MV column (Rainin Instrument Company). The two buffer system begins with 9.5% 5 mM TFA (buffer A) and 5% ACN (buffer B). […] The sample elution period is followed by a brief column wash with an increase of buffer B to 90%.
# The stability of wild type TPO-Rp, TPO-Rp 1-18 (R9A, R11A, SEQ ID No. 2) and TPO 4-18 (R9A, R11A, SEQ ID No. 4) was addressed by HPLC analysis after storage of the three peptides at the following three temperatures: room temperature (˜20° C.), 4° C. and −20° C. The peptides were stored as either 1 mg of dry powder or as a 1 mM solution in water, with no excipients in either condition. After establishing the HPLC elution profiles of these three peptides on day 0 the peptide, HPLC elution profiles were re-tested on days two, nine and fourteen.
# [6] = In vivo degradation in rats after intravenous bolus administration; details: rat, blood, 3 mg/kg intravenous bolus, read-out: calculated half-life in blood
# [7] = Detection of IgG antibodies against the peptide in monkey serum; type: in vivo, cynomolgus monkeys; details: 32 monkey serum samples from Example 9
# Method: as §1
# [8] = Ex vivo degradation of 125I-labelled peptides in pooled rat plasma; type: in vitro ADME; details: 37° C., ~1 μM labelled peptide
# Method: (§2) The degradation profiles of wild type TPO-Rp, TPO-Rp 1-18 (R9A, R11A, SEQ ID No. 2) and TPO-Rp 4-18 (R9A, R11A, SEQ ID No. 4) were studied in human serum (a pool of serum from 200 patients) and rat plasma (a pool of plasma from 50 animals). In order to enable detection of degradation ^125I-labelled peptides (labelled at Y14) have been used. Only the intact peptide and labelled degradation products are detected by HPLC analysis. Therefore, such analysis performed at different points clearly detects when a given peptide is degraded. Incubation was performed at 37° C. The concentration of labelled peptide was ˜1 μM in these studies.
# [9] = 28-day intravenous toxicity study in rats; type: in vivo, Crl:CD(SD)IGS BR rats
# Method: Recovery from effects in the high dose group was assessed via a subsequent 28-day recovery period. […] The vehicle and 45 mg/kg/day groups each consisted of 15 males and 15 females, the 5 mg/kg/day and 15 mg/kg/day groups each consisted of 10 males and 10 females, and the three toxicokinetic groups each consisted of 9 males and 9 females.
# Detailed physical examinations were performed and individual body weights and food consumption were recorded weekly. Clinical pathology parameters (haematology, serum chemistry and urinalysis) were evaluated prior to the initiation of dosing, at the midpoint of the treatment period and at the primary-and recovery necropsies. Bone marrow smears were collected during the pretest period and at the scheduled necropsies. Serum was collected for antibody determinations at the primary necropsy. Ophthalmic examinations were conducted prior to the initiation of dosing, during study week 3 and during the recovery period, study week 7. Complete necropsies were performed on all animals. Selected organs were weighed at the primary and recovery necropsies. Selected tissues collected at the primary necropsy were examined microscopically.
# Blood samples were collected for determination of plasma test article levels on days 0, 6, 14, 20 and 27 from a separate set of animals assigned to the toxicokinetic portion of the study.
# [10] = system: carboplatin treated mice; details: mouse, in vivo
# Excerpt: The model used for the in vivo experiments was reported previously (Akahori et al. (1996) Stem Cells 14:678-689, Akahori et al. (1996) Br. J. Haematol. 94:722-728, Shibuya et al. (1998) Blood 91:37-45, Andrews et al. (1996) Stem Cells 14:661-677). Improvements and modifications that were introduced are indicated below.
# Each test group (PBS, TPO, or TPO-Rp) was given as a single daily dose administered by intraperitoneal injection. Daily doses were begun on day 0 and continued throughout the duration of the experimental period (day 10). Two i.p. injections of carboplatin 90 mg/kg each (PBS for group 11) were given on days 0 and 4.
# Blood collections were taken on days −0 (basal), 8, 11, 14, and 18. Blood was obtained by sampling from the tail of mice (8 week old male […] mice), followed by cauterisation. A volume of 80 μl of blood from each mouse was collected into a heparinized blood collection tube. The 80 μl of blood was then mixed with 160 μl of saline containing sufficient EDTA (0.225%) to provide for anticoagulation.
# […] Carboplatin is used to induce thrombocytopenia. […]
# [11] = Ex vivo degradation of 125I-labelled peptides in pooled human serum; type: in vitro ADME; details: 37° C.
# Method: as §2
# [12] = 5, 15 and 30 mg/kg/day i.v., 28 days, monkeys
# [13] = 5, 15 and 45 mg/kg/day i.v., 28 days, rats
smiles,measurement,setting,value
CC(C)C[C@H](NC(=O)[C@H](CCC(N)=O)NC(=O)[C@H](CC(C)C)NC(=O)[C@H](CCCNC(=N)N)NC(=O)[C@H](Cc1ccc(O)cc1)NC(=O)[C@H](CCCNC(=N)N)NC(=O)[C@H](CO)NC(=O)[C@H](C)NC(=O)[C@@H]1CCCN1C(=O)[C@H](C)NC(=O)[C@H](CC(C)C)NC(=O)[C@H](CCC(=O)O)NC(=O)[C@H](CC(C)C)NC(=O)[C@@H](NC(=O)CNC(=O)CNC(=O)[C@H](CCCNC(=N)N)NC(=O)[C@H](C)N)[C@@H](C)O)C(=O)O [SEQ ID No. 2],serum samples with antibodies against the peptide,[1],none
same,histamine release,"[2]; peptide 3.3 mM or lower, human PBMC",no effect on histamine release
same,"histamine release, fold lower than the positive control (anti-IgE)",[2]; peptide 10 mM,~10 fold
same,histamine release,"[2]; peptide 10 mM, PBMC",15 ng/mL
same,"Body weights, clinical pathology parameters, physiologic parameters, electrocardiographic evaluations and organ weights",[3]; [12],unaffected
same,deaths,[3]; [12],no deaths
same,"ophthalmological, macroscopic or microscopic findings",[3]; [12],"no test peptide-related ophthalmological, macroscopic or microscopic findings"
same,duration of clinical signs,"[3]; after i.v. administration, monkeys",no longer evident one hour after administration
same,facial flushing (incidence),"[3]; females, 5 mg/kg/day",2/3
same,facial flushing (incidence),"[3]; females, 15 mg/kg/day",3/3
same,flushing of body surfaces (incidence),"[3]; females, 15 mg/kg/day",2/3
same,salivation (incidence),"[3]; females, 15 mg/kg/day",1/3
same,decreased muscle tone (incidence),"[3]; females, 30 mg/kg/day",1/5
same,emesis (incidence),"[3]; females, 30 mg/kg/day",2/5
same,facial flushing (incidence),"[3]; females, 30 mg/kg/day",5/5
same,flushing of body surfaces (incidence),"[3]; females, 30 mg/kg/day",4/5
same,salivation (incidence),"[3]; females, 30 mg/kg/day",4/5
same,tolerability,"[3]; male and female monkeys, 28 days, doses up to 30 mg/kg/day",well tolerated
same,no-observed-effect level (NOEL),"[3]; male monkeys, based upon facial flushing",5 mg/kg/day
same,compound-related clinical signs,"[3]; males, 5 mg/kg/day",no compound-related clinical signs
same,facial flushing (incidence),"[3]; males, 15 mg/kg/day",3/3
same,salivation (incidence),"[3]; males, 15 mg/kg/day",1/3
same,decreased muscle tone (incidence),"[3]; males, 30 mg/kg/day",1/5
same,emesis (incidence),"[3]; males, 30 mg/kg/day",1/5
same,facial flushing (incidence),"[3]; males, 30 mg/kg/day",4/5
same,flushing of body surfaces (incidence),"[3]; males, 30 mg/kg/day",3/5
same,salivation (incidence),"[3]; males, 30 mg/kg/day",3/5
same,NOAEL at 28 days,[4],30 mg/kg/day
same,degradation in HPLC studies,[5],no sign of degradation
same,half-life,[6],7.3 min
same,serum samples with antibodies against the peptide,[7],none
same,half-life,[8],~1.1 min
same,"Survival, body weights, food consumption, clinical pathology parameters, organ weights and bone marrow cytology",[9]; [13],unaffected
same,"ophthalmological, macroscopic or microscopic findings",[9]; [13],"no peptide-related ophthalmological, macroscopic or microscopic findings"
same,no-observed-effect-level (NOEL),"[9]; female rats, 28 days i.v.",45 mg/kg/day
same,tolerability,"[9]; male and female rats, 28 days i.v.",well tolerated
same,effects on other blood components,[10],None of the peptides used
same,improved stability over the wild type oligopeptide,[11],five-fold
same,half-life,"[11]; human, ~1 μM labelled peptide",~9.6 min
